In US10214520B2, “Substituted azaspiro(4.5)decane derivatives” (priority 2014, dated 2019):
Where two headings read alike, the source gives them in different places.

Sequences of proteins named here, by UniProt entry; tags and fusion partners are left off. A change or cut given only in a name is not applied to a line headed by its entry.
UniProt P35372, whole entry, looked up: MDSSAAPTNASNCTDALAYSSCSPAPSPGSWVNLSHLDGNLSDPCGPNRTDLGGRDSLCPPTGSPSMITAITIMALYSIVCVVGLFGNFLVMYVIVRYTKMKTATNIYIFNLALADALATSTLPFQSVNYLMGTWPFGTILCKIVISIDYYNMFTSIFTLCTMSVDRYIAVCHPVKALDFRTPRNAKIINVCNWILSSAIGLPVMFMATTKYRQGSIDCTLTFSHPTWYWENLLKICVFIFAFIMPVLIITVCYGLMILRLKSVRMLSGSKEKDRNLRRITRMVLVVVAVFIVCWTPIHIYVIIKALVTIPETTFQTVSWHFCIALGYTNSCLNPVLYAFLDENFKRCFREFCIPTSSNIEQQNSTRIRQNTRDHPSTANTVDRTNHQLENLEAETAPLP
UniProt P41146: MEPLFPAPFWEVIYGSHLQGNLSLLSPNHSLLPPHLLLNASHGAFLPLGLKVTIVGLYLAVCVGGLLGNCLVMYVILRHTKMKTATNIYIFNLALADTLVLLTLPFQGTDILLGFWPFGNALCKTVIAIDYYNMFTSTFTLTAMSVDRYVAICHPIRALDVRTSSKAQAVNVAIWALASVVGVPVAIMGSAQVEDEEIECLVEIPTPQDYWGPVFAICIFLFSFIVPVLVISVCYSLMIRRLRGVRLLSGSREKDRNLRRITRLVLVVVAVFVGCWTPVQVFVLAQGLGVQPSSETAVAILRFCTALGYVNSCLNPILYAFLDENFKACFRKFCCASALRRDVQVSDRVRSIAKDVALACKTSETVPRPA

Assays:
[1] = target: human μ opiate receptor (Homo sapiens, UniProt P35372); assay: μ opiate receptor binding assay with [3H]-naloxone, membrane preparation of CHO-K1 cells (WGA-SPA beads); conditions: for MOP % Inhibition @1 μM / % inhibition (μ) [1 μM]: test concentration 1 μM
[2] = target: ORL1 receptor (Homo sapiens, UniProt P41146); conditions: for ORL1 % Inhibition @ 1 μM / % inhibition (ORL1) [1 μM]: test concentration 1 μM
[3] = read-out: Ki (μ) mean [μm], mean
[4] = read-out: Ki (ORL1) mean [μm], mean

CN(C)[C@]1(c2ccccc2)CC[C@]2(CC1)CC(=O)N(CCC(=O)NCCCC#N)C2
Ki ([1]; read-out: MOP Ki): 56.5 nM
MOP % Inhibition @1 μM [1]: 89%
Ki ([2]; read-out: ORL1 Ki): 465 nM
ORL1 % Inhibition @ 1 μM [2]: 43%

CN(C)[C@]1(c2ccccc2)CC[C@]2(CC1)CC(=O)N(CCC(C)(C)C(=O)N1CCS(=O)(=O)CC1)C2
Ki ([1]; read-out: MOP Ki): 21 nM
MOP % Inhibition @1 μM [1]: 89%
Ki ([2]; read-out: ORL1 Ki): 150 nM
ORL1 % Inhibition @ 1 μM [2]: 56%

COc1cccnc1N1C[C@]2(CC[C@](c3ccccc3)(N(C)C)CC2)CC1=O
Ki ([1]; read-out: MOP Ki): 1360 nM
Ki ([2]; read-out: ORL1 Ki): 340 nM

(8-Cyclopentyl-8-dimethylamino-3-azaspiro[4.5.]decan-3-ylphenylmethanone
% inhibition (μ) [1 μM] [1]: 96.5%
% inhibition (ORL1) [1 μM] [2]: 72%

CN(C)[C@]1(c2ccccc2)CC[C@]2(CC1)CC(=O)N(Cc1ccccn1)C2
Ki ([1]; read-out: MOP Ki): 8 nM
MOP % Inhibition @1 μM [1]: 99%
Ki ([2]; read-out: ORL1 Ki): 10 nM
ORL1 % Inhibition @ 1 μM [2]: 74%

CN(C)[C@]1(c2ccccc2)CC[C@]2(CC1)CC(=O)N(CCCC(=O)N1CCS(=O)(=O)CC1)C2
Ki ([1]; read-out: MOP Ki): 150 nM
MOP % Inhibition @1 μM [1]: 82%
Ki ([2]; read-out: ORL1 Ki): 530 nM
ORL1 % Inhibition @ 1 μM [2]: 44%

CN(C)[C@]1(c2cnccn2)CC[C@]2(CC1)CC(=O)N(CCC(C)(C)C(N)=O)C2
Ki ([1]; read-out: MOP Ki): 250 nM
MOP % Inhibition @1 μM [1]: 61%
Ki ([2]; read-out: ORL1 Ki): 230 nM
ORL1 % Inhibition @ 1 μM [2]: 44%

CNC(=O)CCCN1CC2(CCC(c3ccccc3)(N(C)C)CC2)CC1=O (centres unmarked)
Ki ([1]; read-out: MOP Ki): 96.5 nM
MOP % Inhibition @1 μM [1]: 87%
Ki ([2]; read-out: ORL1 Ki): 82 nM
ORL1 % Inhibition @ 1 μM [2]: 71%

CCNC(=O)N1CCC2(CCC(Cc3ccccc3)(N(C)C)CC2)C1 (centres unmarked)
Ki [1, 3]: 51 nM
% inhibition (μ) [1 μM] [1]: 76.5%
Ki [2, 4]: 440 nM
% inhibition (ORL1) [1 μM] [2]: 34.5%

CN(C)[C@]1(c2ccccc2)CC[C@]2(CC1)CC(=O)N(CC(=O)NCc1ccncc1)C2
Ki ([1]; read-out: MOP Ki): 52 nM
MOP % Inhibition @1 μM [1]: 94%
Ki ([2]; read-out: ORL1 Ki): 46.5 nM
ORL1 % Inhibition @ 1 μM [2]: 79%

CN(C)C1(c2ccccc2)CCC2(CC1)CC(=O)N(CCCC(=O)NCC1CCS(=O)(=O)CC1)C2 (centres unmarked)
Ki ([1]; read-out: MOP Ki): 390 nM
MOP % Inhibition @1 μM [1]: 74%
Ki ([2]; read-out: ORL1 Ki): 440 nM
ORL1 % Inhibition @ 1 μM [2]: 48%

CN(CC(N)=O)C(=O)CN1C[C@]2(CC[C@@](c3ccccc3)(N(C)C)CC2)CC1=O
Ki ([1]; read-out: MOP Ki): 310 nM
MOP % Inhibition @1 μM [1]: 72%
Ki ([2]; read-out: ORL1 Ki): 265 nM
ORL1 % Inhibition @ 1 μM [2]: 58%

CN(C)[C@]1(c2ccccc2)CC[C@]2(CC1)CC(=O)N(CC(=O)NCC#N)C2
Ki ([1]; read-out: MOP Ki): 37.5 nM
MOP % Inhibition @1 μM [1]: 97%
Ki ([2]; read-out: ORL1 Ki): 27.5 nM
ORL1 % Inhibition @ 1 μM [2]: 71%

CN(C)C(=O)CCN1CCC2(CCC(c3cccs3)(N(C)C)CC2)C1 (centres unmarked)
Ki [1, 3]: 4.45 nM
% inhibition (μ) [1 μM] [1]: 94.5%
Ki [2, 4]: 11.6 nM
% inhibition (ORL1) [1 μM] [2]: 91%

CN1CC(CCN2CC3(CCC(c4cccs4)(N(C)C)CC3)CC2=O)C1 (centres unmarked)
Ki [1, 3]: 7.7 nM
% inhibition (μ) [1 μM] [1]: 98.5%
Ki [2, 4]: 17 nM
% inhibition (ORL1) [1 μM] [2]: 90%

CN(C)[C@]1(c2ccccc2)CC[C@]2(CC1)CC(=O)N(CC(=O)NCC(C)(C)C#N)C2
Ki ([1]; read-out: MOP Ki): 10.8 nM
MOP % Inhibition @1 μM [1]: 98%
Ki ([2]; read-out: ORL1 Ki): 65.5 nM
ORL1 % Inhibition @ 1 μM [2]: 86%

CN[C@]1(c2ccccc2)CC[C@]2(CC1)CC(=O)N(CC(C)(C)C(N)=O)C2
Ki ([1]; read-out: MOP Ki): 755 nM
MOP % Inhibition @1 μM [1]: 53%
Ki ([2]; read-out: ORL1 Ki): 525 nM
ORL1 % Inhibition @ 1 μM [2]: 25%

cis-4-(8-Dimethylamino-3-oxo-8-pyridin-2-yl-2-azaspiro[4.5]decan-2-yl)-butyric acid methyl ester
Ki ([1]; read-out: MOP Ki): 130 nM
MOP % Inhibition @1 μM [1]: 77%
Ki ([2]; read-out: ORL1 Ki): 350 nM
ORL1 % Inhibition @ 1 μM [2]: 47%

CNC(=O)CN(C)C(=O)CN1C[C@]2(CC[C@@](c3ccccc3)(N(C)C)CC2)CC1=O
Ki ([1]; read-out: MOP Ki): 86.5 nM
MOP % Inhibition @1 μM [1]: 83%
Ki ([2]; read-out: ORL1 Ki): 73 nM
ORL1 % Inhibition @ 1 μM [2]: 75%

CN(C)C1(c2cccs2)CCC2(CCN(c3ccccc3)C2)CC1 (centres unmarked)
Ki [1, 3]: 2.8 nM
% inhibition (μ) [1 μM] [1]: 100%
Ki [2, 4]: 8.35 nM
% inhibition (ORL1) [1 μM] [2]: 94%

CN(C)[C@]1(c2ccccn2)CC[C@]2(CC1)CC(=O)N(CC(N)=O)C2
Ki ([1]; read-out: MOP Ki): 2640 nM
MOP % Inhibition @1 μM [1]: 30%
Ki ([2]; read-out: ORL1 Ki): 1700 nM
ORL1 % Inhibition @ 1 μM [2]: 9%

CN(C)C1(c2ccccc2)CCC2(CC1)CC(=O)N(CC(C)(C)C(=O)N1CCS(=O)(=O)CC1)C2 (centres unmarked)
Ki ([1]; read-out: MOP Ki): 69 nM
MOP % Inhibition @1 μM [1]: 94%
Ki ([2]; read-out: ORL1 Ki): 83.5 nM
ORL1 % Inhibition @ 1 μM [2]: 75%

cis-2-(8-Dimethylamino-3-oxo-8-pyridin-2-yl-2-azaspiro[4.5]decan-2-yl)-acetic acid hydrochloride
Ki ([1]; read-out: MOP Ki): 5960 nM
MOP % Inhibition @1 μM [1]: 13%
ORL1 % Inhibition @ 1 μM [2]: −3%

CN(C)[C@]1(c2ccccc2)CC[C@]2(CC1)CC(=O)N(CC(=O)NCC(C)(C)O)C2
Ki ([1]; read-out: MOP Ki): 64 nM
MOP % Inhibition @1 μM [1]: 78%
Ki ([2]; read-out: ORL1 Ki): 103 nM
ORL1 % Inhibition @ 1 μM [2]: 73%

Cc1ccc(C2(N(C)C)CCC3(CC2)CC(=O)N(Cc2ccncc2)C3)s1 (centres unmarked)
Ki [1, 3]: 9.05 nM
% inhibition (μ) [1 μM] [1]: 91.5%
Ki [2, 4]: 118 nM
% inhibition (ORL1) [1 μM] [2]: 50%
